Experimental data taken from patent publication US11649255B2, “Indazoles as hematopoietic progenitor kinase 1 (HPK1) inhibitors and methods using same” (1st Biotherapeutics, Inc., priority 2020, dated 2023).

By UniProt entry, the sequences of proteins in these tests, tags left out.
UniProt Q92918, whole entry: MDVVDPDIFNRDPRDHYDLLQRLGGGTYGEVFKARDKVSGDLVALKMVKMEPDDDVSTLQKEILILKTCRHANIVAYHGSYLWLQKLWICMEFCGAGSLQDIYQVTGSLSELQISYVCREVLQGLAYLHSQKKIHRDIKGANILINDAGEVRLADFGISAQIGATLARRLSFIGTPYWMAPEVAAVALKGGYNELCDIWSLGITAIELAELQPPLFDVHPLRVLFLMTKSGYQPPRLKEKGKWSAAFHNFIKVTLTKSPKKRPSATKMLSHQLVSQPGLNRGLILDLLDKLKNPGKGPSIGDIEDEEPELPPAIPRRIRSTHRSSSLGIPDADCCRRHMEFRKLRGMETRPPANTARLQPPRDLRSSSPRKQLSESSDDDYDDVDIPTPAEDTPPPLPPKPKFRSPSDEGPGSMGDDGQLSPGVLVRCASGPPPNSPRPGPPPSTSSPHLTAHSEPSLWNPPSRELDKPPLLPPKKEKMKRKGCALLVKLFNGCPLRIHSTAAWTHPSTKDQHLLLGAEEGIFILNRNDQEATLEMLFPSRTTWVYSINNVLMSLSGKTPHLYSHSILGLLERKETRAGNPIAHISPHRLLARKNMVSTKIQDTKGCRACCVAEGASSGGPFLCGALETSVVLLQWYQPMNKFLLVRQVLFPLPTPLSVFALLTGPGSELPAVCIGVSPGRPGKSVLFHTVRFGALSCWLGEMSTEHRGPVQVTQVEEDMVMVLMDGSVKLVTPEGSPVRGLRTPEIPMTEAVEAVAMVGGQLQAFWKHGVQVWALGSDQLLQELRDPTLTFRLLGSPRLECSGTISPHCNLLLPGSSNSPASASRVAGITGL

Molecular target: recombinant human HPK1 (Homo sapiens (Human), UniProt Q92918)
Test: HPK1 kinase assay (ADP-Glo)
Conditions: read-out: HPK1 IC50, 25 μM ATP, MBP substrate
Description: HPK1 kinase activity was measured by Promega's ADP-Glo™ kinase assay. In this assay, 5 ng of recombinant human HPK1 (signalchem) is incubated with 5 μL of compounds (0.5% DMSO), 5 μL of MBP (0.5 μg/μl) and 5 μL of ATP (25 μM) in buffer (40 mM Tris, 7.5; 20 mM MgCl2; 0.1 mg/ml BSA; 5 μM DTT). The assay was started by incubating the reaction mixture in a 96-well plate at 30′ C for 40 minutes. After the incubation, 25 uL ADP-Glo reagent was added and the reaction was incubated at room temperature for 40-min to stop the reaction and degrade residual ATP. The ADP product was then converted to ATP by adding 50 uL per well of detection reagent. Luminescence was detected after 30-min room temperature incubation with the Molecular device I3X plate reader. The IC50 values were calculated from a series of percent inhibition values determined at a range of inhibitor concentration using software routines as implemented in the GraphPad Prism 7 software and SigmaPlot13.0.

IC50: < 100 nM
Structure (SMILES): Cc1ccc2[nH]ncc2c1-c1ccn2nc(NC(=O)[C@@H]3C[C@@H]3F)cc2c1
